Source: US20140328940A1, “MODULATION OF AXON DEGENERATION” (Genentech, Inc., priority 2009, published 2014)
“Also recorded” adds a separate entry of the source.

Key:
[1] = tested on: DRG neurons (axon vs. cell body compartment); assay: Campenot chamber local axon degeneration (anti-NGF in axon compartment); format: cell-based, mouse
Protocol: Teflon dividers (Tyler Research) were cleaned by washing in water and wiping them clean of any residual grease. Dividers were then soaked in Nochromix (Godax Laboratories)/sulfuric acid overnight, rinsed five times in distilled and autoclaved water (SQ water), boiled for 30 minutes, and then air-dried before use
Mouse laminin (5 μg/ml in sterile filtered water; Invitrogen) was added to PDL coated 35 mm dishes (BD Biosciences) and they were incubated for 1 hour at 37° C., followed by two rinses in SQ water. The dishes were vacuum-dried and then air-dried in a laminar flow hood for 15 minutes. Prepared dishes were then scored with a pin rake (Tyler Research). […] High vacuum grease (VWR) was added to each Teflon divider under a dissection scope. The laminin coated PDL dishes were inverted and dropped onto the Teflon divider, with additional pressure added by use of a toothpick in the non-track-containing regions. Dishes were incubated for 1 hour at 37° C. Five hundred microliters of NBM+MC (50 ng/ml NGF) solution was added to each of the side compartments, and a grease barrier was added in front of the center cell slot.
Free E13.5 spinal cords were dissected from mouse embryos and placed into NBM+MC (25 ng/ml NGF) solution. DRGs were detached from the spinal cord with a tungsten needle. An NBM+MC-lubricated P200 pipette was used to move DRGs into a 1.5 ml tube. DRGs were pelleted with a tabletop centrifuge for 30 seconds. The supernate was discarded and 0.05% Trypsin/EDTA (cold) was added. The pellet was resolubilized with a pipette and incubated at 37° C. for 15 minutes with constant agitation (650 RPM). The sample was again centrifuged and the supernate discarded. […]
After 28 hours of anti-NGF antibody treatment, 8% PFA/30% sucrose solution (see above) was added directly to the culture medium at a 1:1 dilution and incubated for 30 minutes. […] The neurons were visualized by use of a fluorescence microscope. […]

[2] = tested on: cerebellar granule neurons (CGNs); assay: serum deprivation/KCl reduction degeneration of cerebellar granule neurons; format: cell-based, mouse

Question: With `O=C1NC(=O)C(c2ccccc2[N+](=O)[O-])=C1Nc1ccc(O)c(Cl)c1` [SB415286] as the compound, how does the “Axon Compartment (protection of NGF-deprived axons)” value [1] read?
Answer: failed to prevent degeneration; also recorded: No (5)

Question: What about the “Cell Body Compartment (protection of NGF-deprived axons)” value [1] of the same compound?
Answer: did not degenerate; also recorded: protected from local degeneration; also recorded: Yes (5)

Question: What about the “formation of varicosities in locally NGF-deprived axons” value [1] of the same compound?
Answer: large number of axons with varicosities, as well as fragmented axons

Question: What about the “protection of cerebellar granule neurons from serum deprivation/KCl reduction” value [2] of the same compound?
Answer: protect
